Test results reported in ChEMBL document CHEMBL5579878, “Allosteric Activation of Protein Phosphatase 5 with Small Molecules” (J Med Chem, 2024).

Biological target: T1, Serine/threonine-protein phosphatase 5 (Homo sapiens) (UniProt P53041)
T1 sequence (whole entry): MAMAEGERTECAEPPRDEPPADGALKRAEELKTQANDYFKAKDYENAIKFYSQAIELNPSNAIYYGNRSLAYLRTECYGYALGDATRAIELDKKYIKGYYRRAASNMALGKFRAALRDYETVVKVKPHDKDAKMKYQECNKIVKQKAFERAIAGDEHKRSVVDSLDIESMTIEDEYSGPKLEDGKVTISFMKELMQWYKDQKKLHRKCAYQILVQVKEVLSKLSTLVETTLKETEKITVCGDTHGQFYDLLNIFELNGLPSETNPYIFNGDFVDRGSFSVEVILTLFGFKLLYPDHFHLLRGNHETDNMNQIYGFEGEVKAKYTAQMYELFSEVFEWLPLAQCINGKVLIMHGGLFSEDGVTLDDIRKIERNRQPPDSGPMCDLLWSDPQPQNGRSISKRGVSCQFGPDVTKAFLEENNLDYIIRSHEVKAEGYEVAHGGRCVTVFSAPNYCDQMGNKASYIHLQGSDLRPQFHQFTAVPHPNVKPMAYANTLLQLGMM
Assay: Activation of His-tagged human PP5 extracted from Escherichia coli BL21 using pNPP as substrate assessed as fold increase in phosphatase activity at 50 uM incubated for 30 mins by spectrophotometric analysis
Conditions: filed as activator

- fold change (FC): 2.9
SMILES: N=c1oc2cc(F)cc(F)c2cc1C(N)=S
